Here are results for 1 molecule from BindingDB's records for US9259422.

The chains behind the UniProt entries cited, without tags or fusion partners.
UniProt P33535, whole entry: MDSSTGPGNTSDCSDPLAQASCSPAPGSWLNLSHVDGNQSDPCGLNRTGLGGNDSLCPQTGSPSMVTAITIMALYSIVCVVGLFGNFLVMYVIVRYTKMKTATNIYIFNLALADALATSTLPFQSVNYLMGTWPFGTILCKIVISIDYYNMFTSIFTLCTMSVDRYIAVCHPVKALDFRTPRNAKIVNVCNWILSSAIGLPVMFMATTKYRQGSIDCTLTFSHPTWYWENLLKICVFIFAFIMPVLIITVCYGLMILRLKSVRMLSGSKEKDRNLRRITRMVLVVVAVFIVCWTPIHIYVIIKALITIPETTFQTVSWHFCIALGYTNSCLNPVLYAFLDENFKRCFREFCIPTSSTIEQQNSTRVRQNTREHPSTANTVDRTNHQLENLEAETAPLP
UniProt P33533, whole entry: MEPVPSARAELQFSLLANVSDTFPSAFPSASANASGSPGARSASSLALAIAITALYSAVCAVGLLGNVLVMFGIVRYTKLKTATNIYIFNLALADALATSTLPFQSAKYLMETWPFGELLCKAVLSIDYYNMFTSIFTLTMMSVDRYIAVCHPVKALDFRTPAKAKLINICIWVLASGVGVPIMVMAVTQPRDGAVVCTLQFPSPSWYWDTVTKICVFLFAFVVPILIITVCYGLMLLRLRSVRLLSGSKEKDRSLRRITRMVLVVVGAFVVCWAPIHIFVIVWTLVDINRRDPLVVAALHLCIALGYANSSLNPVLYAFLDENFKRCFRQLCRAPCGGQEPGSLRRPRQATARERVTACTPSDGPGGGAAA

Assay [1] deals with Mu-type opioid receptor (Rattus norvegicus, UniProt P33535). The assay can be described thus: Ligand Binding Assays. The conditions noted are these: pH 7.4. As to the method:
(§1) As Alt et al., 2002. Membranes (20 ug) are incubated in 50 mM Tris-HCl, pH 7.4 with [3H]diprenorphine or [3H]nociceptin in the absence or presence of varying concentrations of test compounds for 60 min in a shaking water bath at 25° C. Nonspecific binding is measured using 10 uM naloxone (MOR, DOR, KOR) or N/OFQ (NOP). Samples are filtered through

Assay [2] concerns the target Delta-type opioid receptor (Rattus norvegicus, UniProt P33533). The assay can be described thus: Ligand Binding Assays. The note with it: pH 7.4. As to the method:
as §1

pKi: −log10 of the molar value.

With `CO[C@]12CC[C@@]3(C[C@@H]1[C@](C)(O)c1ccccc1)[C@H]1Cc4ccc(O)c5c4[C@@]3(CCN1CC1CC1)[C@H]2O5`, the pKi is 9.15 in assay [1] and 8.72 in assay [2].

Usually pKi stands for the negative decadic logarithm of the Ki, by convention in mol/L. Lower therefore signals a large Ki.
